The source of these data is publication PMC9833666, “Designing and identifying β-hairpin peptide macrocycles with antibiotic potential” (Science Advances, 2023).

This series concerns Single-donor human red blood cells. As to the kind of experiment: Hemolysis assay. In kind it is cell-based. How it is done: Single-donor human red blood cells (Innovative Research, no. IWB3ALS) were washed in PBS and adjusted to a concentration of 1 × 10^9 cells/ml. Each peptide was added individually to 200 μl of cells at a concentration of either 300 μg/ml (SySA library) or 128 μg/ml (SySA-5 optimization library) in a 96-well polypropylene plate (Corning, 3879). PBS alone and 1% Triton X-100 were used for background normalization and 100% hemolysis, respectively. Each reaction was set up in triplicate. Plates were incubated for 3 hours at 37°C. Following incubation, samples were centrifuged at 800g for 20 min, and 100 μl of supernatant was transferred to a flat-bottom 96-well plate (Genesse, 25-104). Percent hemolysis for each sample was determined by normalizing the absorbance at 540 nm for each sample to the average background and dividing by the average absorbance for 1% Triton X-100 (100% hemolysis). Error bars represent 1 SD of triplicate samples.

Protegrin-1 [reference compound]: the “Fold Change Hemolysis” value (hemolysis at 128 µg/ml, fold change relative to SySA-5) is reported as 32.7. The “Hemolysis (%)” value (human red blood cells 1x10^9 cells/ml, peptide 300 μg/ml, 3 h 37°C, relative to 1% Triton X-100, A540, ± 1 SD, n=3) was 41.84 ± 5.03%.
